From PubChem BioAssay AID493244 (The Scripps Research Institute Molecular Screening Center, 2011) come the findings set out here.

This is a selection; strong and weak results do not stand in their true shares. Active and inactive are the calls of the source.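 How the source made its calls: active means inhibition above the mean inhibition of all tested compounds plus 3 SD (cut at about 17% in these data); inactive means the rest.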

The experiment has as its target Troponin I, cardiac muscle (Homo sapiens) + Troponin T, cardiac muscle (Homo sapiens) + Troponin C, slow skeletal and cardiac muscles (Homo sapiens) (UniProt P19429+P45379+P63316). As to the kind of experiment: cardiac RTF calcium sensitivity inhibitors, primary screen, biochemical, IANBD-TnC fluorescence, EC70 calcium (AID 493244).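 Further: assay run at fixed EC70 calcium of 1.6 mM.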 Particulars: IANBD-labeled cardiac RTF, Ca2+ fluorescence; at 7.15 µM; hits give high values.
On to `O=C(NC1CCS(=O)(=O)C1)NP(=S)(Oc1ccccc1)Oc1ccccc1` (centres undefined), for which the inhibition – broadly, the drop in the measured response relative to a control, in per cent – is inactive: -4.1%.

With `CCNC(=S)/N=C(\N)N[N+](=O)[O-]`, the inhibition was inactive: -0.44%.

On to `O=P1(N(CCCl)CCCl)OCCC2CCCCN21` (centres undefined), for which the inhibition was inactive: -6.02%.

For `O=C(OC1CN2CCC1CC2)c1ccccc1` (centres undefined), the inhibition is inactive: -1.69%.

For the compound `CCC(=O)N1C2C3N(C(=O)CC)C1C1N(C(=O)CC)C(C(N1C(=O)CC)N3C(=O)CC)N2C(=O)CC`, the inhibition was inactive: -5.13%.

Consider `COC(=O)c1cc2c(s1)N=C(c1ccccc1)N(C)P2(=O)N1CCOCC1` (centres undefined), for which the inhibition is inactive: -11.6%.

As for `CC(=O)NC(SC(=S)N(CC(C)C)CC(C)C)C(Cl)(Cl)Cl` (centres undefined), the inhibition is inactive: -1.36%.

In the case of `Cc1ccc(OP(=O)(Nc2ccccn2)Oc2ccc(C)cc2)cc1`, the inhibition is inactive: -4.58%.

Turning to `Cc1ccccc1OP(=O)(Nc1ccccn1)Oc1ccccc1C`, the inhibition is inactive: 3.06%.

With `CC(NC(=O)COC(=O)C(O)(c1ccccc1)c1ccccc1)c1ccccc1` (centres undefined), the inhibition is inactive: -13.4%.

`CN(C)C(=O)Oc1noc2ccccc12`: the inhibition is inactive: 3.35%.

Regarding `O=c1c2cc([N+](=O)[O-])ccc2[nH]c2c([N+](=O)[O-])cc([N+](=O)[O-])cc12`, the inhibition was inactive: -0.63%.

Take `CCOP1(=S)c2c(C)nn(CCC#N)c2N=C(c2ccccc2F)N1C` (centres undefined): the inhibition was inactive: 1.35%.

As to `O=P(Nc1nccs1)(c1ccccc1)c1nc2ccccc2s1` (centres undefined), the inhibition was inactive: -1.72%.

`O=P(Nc1nccs1)(Oc1ccccc1)Oc1ccccc1`: the inhibition was inactive: -0.14%.

`CS(=O)(=O)c1cc([N+](=O)[O-])c2no[n+]([O-])c2c1`: the inhibition is inactive: -21.7%.

As to `O=C(O)COc1ccc([As](=O)(O)O)cc1[N+](=O)[O-]`, the inhibition was inactive: -5.44%.

Turning to `Nc1ccccc1[As](=O)(O)c1ccccc1`, the inhibition is inactive: 2.63%.

For `NC(=O)Nc1ccc([As](=O)(O)O)cc1`, the inhibition is inactive: 2.02%.

For the compound `N#CCCN(C(=O)COC(=O)C(O)(c1ccccc1)c1ccccc1)c1ccc(F)cc1`, the inhibition was inactive: -2.31%.

For the compound `CCOP1(=S)c2c(C)nn(CCC#N)c2N=C(c2ccc(F)cc2)N1C` (centres undefined), the inhibition was inactive: -14.6%.

Take `CN(C(=O)Cc1ccccc1)[C@@H]1CC[C@]2(CCCO2)C[C@H]1N1CCCC1`: the inhibition is inactive: 3.59%.

As for `CN(C)C(=O)c1cc([N+](=O)[O-])cc2c1-c1c(cc([N+](=O)[O-])cc1[N+](=O)[O-])C2=O`, the inhibition was inactive: -4.92%.

`O=[N+]([O-])c1ccc2c(c1)nnn2O`: the inhibition was inactive: 1.07%.

On to `CN(C(=O)Cc1ccc(Cl)c(Cl)c1)[C@H]1CC[C@@]2(CCCO2)C[C@@H]1N1CCCC1`, for which the inhibition is inactive: 13.2%.

Turning to `O=C(OC1CN2CCC1CC2)c1ccc(Cl)cc1` (centres undefined), the inhibition is inactive: -4.07%.

Regarding `COc1cc(C(=O)NCC2(N3CCOCC3)CCCCC2)cc(Cl)c1OC(C)C`, the inhibition is inactive: 13.8%.

For `O=[As](O)(O)c1cccnc1`, the inhibition is inactive: 1.11%.

Take `CS(=O)(=O)c1ccc(Cl)c(NC(=O)COC(=O)C(O)(c2ccccc2)c2ccccc2)c1`: the inhibition is inactive: 0.19%.

As to `O=[As](O)(c1cccc(O)c1)c1cccc(O)c1`, the inhibition is inactive: 0.22%.

For `Cc1cccc(OCC(=O)OC2CN3CCC2CC3)c1` (centres undefined), the inhibition was inactive: 0.13%.

Regarding `Cc1ccc(NCCc2c([N+](=O)[O-])cc([N+](=O)[O-])cc2[N+](=O)[O-])cc1`, the inhibition was inactive: -2.66%.

In the case of `Nc1cccc2c([As](=O)(O)O)cccc12`, the inhibition was inactive: -18.6%.

Take `CCCOP(=S)(Nc1nc(N)cc(=O)[nH]1)OCCC`: the inhibition was inactive: 1.2%.

Consider `COc1cc(C2NCCC3(OCCO3)C2(C)C)cc(OC)c1OC` (centres undefined), for which the inhibition was inactive: 0.08%.

Consider `CCOP(=O)(Nc1cccc2ccccc12)OCC`, for which the inhibition was inactive: -5.95%.

As for `CCC1=CC2Cc3nc4ccc(Cl)cc4c(N)c3C(C1)C2` (centres undefined), the inhibition was inactive: -3.51%.

Consider `O=P1(Nc2ccccn2)COc2ccccc2OC1`, for which the inhibition was inactive: 9.33%.

As to `CCOP(=O)(NC(=NC(C)c1ccccc1)NC(C)c1ccccc1)OCC` (centres undefined), the inhibition was inactive: -10.1%.

Regarding `CCOP(=O)(Nc1ccc(C)cn1)OCC`, the inhibition was inactive: -7.8%.

Consider `Clc1n[nH]nc1-c1nn[nH][15n]1`, for which the inhibition was inactive: 7.63%.

`CC(C)(C)C(=O)NC(Sc1ncccn1)C(Cl)(Cl)Cl` (centres undefined): the inhibition is inactive: 4.84%.

For the compound `COc1ccccc1CNC(=O)COC(=O)C(O)(c1ccccc1)c1ccccc1`, the inhibition was inactive: 3.68%.

`CN(C(=O)Cc1ccc(Cl)c(Cl)c1)[C@@H]1CCCC[C@H]1N1CCCC1`: the inhibition is inactive: -3.8%.

As to `CC(C)/C=N\N=C(\N)N[N+](=O)[O-]`, the inhibition was inactive: -12.9%.

Take `CC1(CBr)Cn2c(nc3ccccc3c2=O)S1` (centres undefined): the inhibition is inactive: -7.26%.

Consider `Cc1nn(-c2ccccc2)c2c1P(=O)(N1CCOCC1)N(C)C(c1ccccc1)=N2` (centres undefined), for which the inhibition was inactive: -4.6%.

For the compound `Cc1ccc(C(=O)OC2CN3CCC2CC3)cc1` (centres undefined), the inhibition was inactive: 0.74%.

On to `CC1CCC(C(C)C)C(OP(=O)(Nc2ccccn2)c2ccccc2)C1` (centres undefined), for which the inhibition is inactive: -4.5%.

`CN(C)C1(CNC(=O)c2ccc(S(C)(=O)=O)cc2)CCCCC1`: the inhibition was inactive: 4.36%.

Regarding `O=C(/C=C/c1ccccc1)OC1CN2CCC1CC2` (centres undefined), the inhibition was inactive: -7.74%.

`CCCC1OP(=O)(Nc2ccccc2)OCC1CC` (centres undefined): the inhibition is inactive: 0.99%.

Regarding `O=P1(Nc2ncccn2)COc2ccccc2OC1`, the inhibition is inactive: -11.3%.

With `Nc1cccc([As](=O)(O)c2ccccc2)c1`, the inhibition is inactive: 9.76%.

Take `NS(=O)(=O)c1cccc(NC(=O)COC(=O)C(O)(c2ccccc2)c2ccccc2)c1`: the inhibition is inactive: -3.9%.

Regarding `O=P1(Nc2ccc(Br)cn2)COc2ccccc2OC1`, the inhibition is inactive: -1.93%.

In the case of `Cc1ccc(OCC(=O)OC2CN3CCC2CC3)cc1` (centres undefined), the inhibition is inactive: -14.8%.

Take `O=[As](O)(c1cccs1)c1cccs1`: the inhibition was inactive: -11.9%.

In the case of `CCOC(=O)Nc1ccc([As](=O)(O)O)c(O)c1`, the inhibition was inactive: -12.2%.

For `CC1CCNP(=O)(N(CCCl)CCCl)O1` (centres undefined), the inhibition is inactive: -1.86%.

`CCCCOc1ccc(C(=O)NCC2(N3CCCCC3)CCCCC2)cc1OC`: the inhibition was inactive: 5.74%.

As to `Cc1cc(SC(NC(=O)c2ccccc2)C(Cl)(Cl)Cl)nc(C(C)C)n1` (centres undefined), the inhibition is inactive: -17.9%.

In the case of `CCOC(=O)Nc1cccc([As](=O)(O)O)c1`, the inhibition was inactive: 2.89%.

`Cc1cc(SC(NC=O)C(Cl)(Cl)Cl)ncn1` (centres undefined): the inhibition was inactive: 8.07%.
